Experimental data taken from US7807711B2, “Medicinal acidic cannabinoids” (priority 2004, dated 2010).
pKd: −log10 of the molar value.

Sequences of proteins named here, by UniProt entry; tags and fusion partners are left off.
UniProt P34972, whole entry: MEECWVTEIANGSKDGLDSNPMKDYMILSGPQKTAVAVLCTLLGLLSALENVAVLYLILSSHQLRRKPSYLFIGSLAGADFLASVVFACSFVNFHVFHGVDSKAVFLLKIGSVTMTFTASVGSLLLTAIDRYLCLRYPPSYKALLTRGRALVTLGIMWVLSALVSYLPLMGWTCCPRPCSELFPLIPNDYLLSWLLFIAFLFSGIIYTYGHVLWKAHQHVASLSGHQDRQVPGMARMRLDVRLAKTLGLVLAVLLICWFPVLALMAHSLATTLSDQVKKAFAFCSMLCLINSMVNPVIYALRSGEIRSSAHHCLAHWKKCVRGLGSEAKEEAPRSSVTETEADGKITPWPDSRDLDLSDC

Biological target: T1, recombinant human CB2 (Homo sapiens, UniProt P34972)
T1 construct: expressed in transfected cells; host or cells: Sf9 cells
Assay: Competitive receptor binding against tritium labelled CP55,940, CB2
Conditions: purified components; Sf9 cells

With `C=C(C)[C@@H]1CCC(C)=C[C@H]1c1c(O)cc(CCCCC)cc1O` [CBD, cannabidiol] the pKd was 6.55.
